Data: ChEMBL document CHEMBL5543134, “Channeling Nicotinamide Phosphoribosyltransferase (NAMPT) to Address Life and Death” (J Med Chem, 2024)

Test: in vivo
Settings: rat, po

SMILES: N#Cc1cc(-c2ccnc(Nc3ccc4c(c3)CC(=O)N4)n2)ccc1N1CCCC1
- bioavailability: 47%
